Data on three compounds can be found in patent US20210163532A1, “NOVEL M[…] PEPTIDES” (University of Florida Research Foundation, Incorporated, priority 2018, published 2021).

For data set [1], the system named is C57BL/6J mice. Nature of the data set: 55° C. warm-water tail-withdrawal assay, antinociception (agonist activity). Type of data set: in vivo, mouse. Conditions: for antinociceptive activity / antinociception ED50 (and 95% confidence interval): i.c.v. administration; for antinociception ED50 values (printed EC50), i.p. route: i.p. administration.
The test system of data set [2] is C57BL/6J mice. Conditions: 10 mg/kg i.p., over 2 h.
The test system of data set [3] is C57BL/6J mice. Nature of the data set: Rotarod assay. Conditions: 10 mg/kg i.p.
Data set [4] has as its system C57BL/6J mice. The data set is described as follows: Conditioned place preference / aversion (place conditioning). The note with it: 2-day conditioning, i.c.v.: morphine 30 nmol, U50,488 100 nmol, cyclo[D-Phe-Pro-Sar-Phe] 0.1, 1 or 10 nmol.

“And” between values parts separate entries of the source, which are not always exact repeats. Equal entries are not always repeated. Where a SMILES comes first, the peptide text is derived from it. [ ]: non-standard residue; d: D form. dNMeA = CN[C@H](C)C(=O)O; Sar = CNCC(=O)O

Regarding `C[C@@H]1C(=O)N[C@@H](Cc2ccccc2)C(=O)N[C@H](Cc2ccccc2)C(=O)N2CCC[C@H]2C(=O)N1C` [cyclo[D-Phe-Pro-D-NMe-Ala-Phe]] (cyclo(F[dF]P[dNMeA])), the “antinociceptive activity” value in data set [1] is “does show antinoiception at higher dosages”.

On to `CN1CC(=O)N[C@@H](Cc2ccccc2)C(=O)N[C@H](Cc2ccccc2)C(=O)N2CCC[C@H]2C1=O` [cyclo[D-Phe-Pro-Sar-Phe]] (cyclo(F[dF]P[Sar])), for which, in data set [2], the respiration rate result is “without significant effect at any time point tested”. Also, the “coordinated locomotor activity (rotarod latency to fall)” value in data set [3] is “did not differ in effect from vehicle-treated animals”. In addition, the “place conditioning response (CPP or CPA)” value in data set [4] is reported as “neither a significant preference for, nor aversion to, the drug paired chamber”. For the same compound, the duration of antinociception entry in data set [1] (10 nmol dose, i.c.v.) is recorded as “up to 80 min”. Moreover, in data set [1], the “antinociception ED50 (and 95% confidence interval)” value was 0.11 nmol and 0.11 (0.05-0.21) nmol; the “antinociceptive activity” value was “significant time- and dose-dependent antinociceptive activity”; the “antinociception ED50 values (printed EC50), i.p. route” value is 1.91 (0.40-3.54) mg/kg. Besides, the “antinociceptive potency relative to morphine” value in data set [1] (i.c.v., ratio of ED50 values) worked out at 21.4 fold. Moreover, the “antinociceptive activity after peripheral administration” value in data set [1] (i.p. and p.o. routes) was “dose-dependent transient antinociceptive activity”.

With `CN1CC[C@]23c4c5ccc(O)c4O[C@H]2[C@@H](O)C=C[C@H]3[C@H]1C5` [morphine, reference compound], in data set [2], the “ambulation (spontaneous locomotor activity)” value was “significant, time-dependent increase in ambulation” and the respiration rate result is “significantly reduced respiration for the first 40 min”. The “place conditioning response (CPP or CPA)” value in data set [4] is “significant place preference response”. For the same compound, in data set [1], the “antinociception ED50 (and 95% confidence interval)” value was 2.35 (1.13-5.03) nmol and the “antinociception ED50 values (printed EC50), i.p. route” value is 3.91 (2.92-5.17) mg/kg.
